Test results: US4472286A, “Perfluoroalkyl anion/perfluoroalkyl cation ion pair complexes” (Ciba-Geigy Corporation, priority 1983, dated 1984)

Test: Surface tension of aqueous solutions (ASTM D-1331-56)
Assay type: physicochemical
Conditions: for Surface tension, cationic surfactant: Table 5

Surface Tension (Table 2b, 0.01% total actives, 100 mol % single surfactant): 31.0
Surface Tension (Table 2b, 0.1% total actives, 100 mol % single surfactant): 21.6
Surface Tension (Table 3, 0.0001%): 67.4 dynes/cm
Surface Tension (Table 3, 0.001%): 49.6 dynes/cm
Surface Tension (Table 3, 0.01%): 28.1 dynes/cm
Surface Tension (Table 3, 0.1%): 21.6 dynes/cm
Surface Tension (Table 3, 1.0%): 19.5 dynes/cm
Surface tension, cationic surfactant (0.001%): 49.6
Surface tension, cationic surfactant (0.01%): 28.1
Substance: 3-(1,1,2,2-tetrahydroperfluoro-alkylthio)-2-hydroxypropyl-trimethylammonium chloride [Example C1]
